Test results published in patent publication US20260216354A1, “ANTI-CMET ANTIBODY, ANTIBODY-DRUG CONJUGATE, AND PREPARATION METHOD THEREFOR AND USE THEREOF” (MEDILINK THERAPEUTICS (SUZHOU) CO., LTD., priority 2022, published 2026).

Columns and labels:
[1] = test system: cynoMet (cyno.cMet-ECD-His); assay: ELISA affinity of humanized antibodies to cyno Met; type: binding; conditions: cyno.cMet-ECD-His captured
[2] = target: T1, h.cMet-ECD-His (Homo sapiens, UniProt P08581); assay: ELISA protein affinity of cMET antibodies before and after conjugating into ADCs; type: binding
T1 construct: a human cMet ectodomain recombinant protein (Human HGF R/c-MET Protein, His Tag); purchased Acrobiosystems Co., Ltd. / ACRO Biosystems MET-H5227
T1 sequence (P08581 25-932 limits assumed): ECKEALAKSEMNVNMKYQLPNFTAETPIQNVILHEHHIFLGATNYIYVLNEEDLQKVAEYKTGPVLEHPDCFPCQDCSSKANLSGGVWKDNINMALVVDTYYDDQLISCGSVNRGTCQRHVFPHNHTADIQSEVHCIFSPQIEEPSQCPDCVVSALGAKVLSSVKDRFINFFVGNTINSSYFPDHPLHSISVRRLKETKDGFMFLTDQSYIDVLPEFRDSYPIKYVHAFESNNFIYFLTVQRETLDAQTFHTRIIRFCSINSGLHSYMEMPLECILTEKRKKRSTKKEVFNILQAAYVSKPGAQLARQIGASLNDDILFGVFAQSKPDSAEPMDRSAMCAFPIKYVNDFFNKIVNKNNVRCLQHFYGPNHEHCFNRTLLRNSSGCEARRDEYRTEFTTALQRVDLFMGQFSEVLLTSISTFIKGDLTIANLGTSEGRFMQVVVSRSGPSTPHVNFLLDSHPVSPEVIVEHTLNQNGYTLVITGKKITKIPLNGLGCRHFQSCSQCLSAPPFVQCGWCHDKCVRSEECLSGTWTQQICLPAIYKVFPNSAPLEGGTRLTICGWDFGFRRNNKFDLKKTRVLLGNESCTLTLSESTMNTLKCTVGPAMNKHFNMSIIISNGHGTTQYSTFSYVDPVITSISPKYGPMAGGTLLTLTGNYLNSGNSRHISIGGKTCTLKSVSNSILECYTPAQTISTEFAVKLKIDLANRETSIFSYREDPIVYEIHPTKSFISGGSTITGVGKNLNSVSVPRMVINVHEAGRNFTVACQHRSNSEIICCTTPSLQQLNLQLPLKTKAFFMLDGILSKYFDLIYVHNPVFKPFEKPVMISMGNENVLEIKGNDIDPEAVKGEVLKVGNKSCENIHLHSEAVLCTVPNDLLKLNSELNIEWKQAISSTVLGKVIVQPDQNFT

[3] = test system: HGF-induced ERK phosphorylation; assay: Inhibition of HGF-induced ERK phosphorylation in MDA-MB-468 cells (Western blot); type: cell-based, human; conditions: antibody 15 μg/ml, HGF 100 ng/ml, MDA-MB-468, FIG. 4
[4] = target: T2, h.cMet (cMet-ECD-his) (Homo sapiens, UniProt P08581); assay: ELISA affinity of humanized antibodies to human cMet; type: binding; conditions: cMet-ECD-his coated
T2 construct: a human cMet ectodomain recombinant protein (Human HGF R/c-MET Protein, His Tag); purchased Acrobiosystems Co., Ltd. / ACRO Biosystems MET-H5227
T2 sequence (P08581 25-932 limits assumed): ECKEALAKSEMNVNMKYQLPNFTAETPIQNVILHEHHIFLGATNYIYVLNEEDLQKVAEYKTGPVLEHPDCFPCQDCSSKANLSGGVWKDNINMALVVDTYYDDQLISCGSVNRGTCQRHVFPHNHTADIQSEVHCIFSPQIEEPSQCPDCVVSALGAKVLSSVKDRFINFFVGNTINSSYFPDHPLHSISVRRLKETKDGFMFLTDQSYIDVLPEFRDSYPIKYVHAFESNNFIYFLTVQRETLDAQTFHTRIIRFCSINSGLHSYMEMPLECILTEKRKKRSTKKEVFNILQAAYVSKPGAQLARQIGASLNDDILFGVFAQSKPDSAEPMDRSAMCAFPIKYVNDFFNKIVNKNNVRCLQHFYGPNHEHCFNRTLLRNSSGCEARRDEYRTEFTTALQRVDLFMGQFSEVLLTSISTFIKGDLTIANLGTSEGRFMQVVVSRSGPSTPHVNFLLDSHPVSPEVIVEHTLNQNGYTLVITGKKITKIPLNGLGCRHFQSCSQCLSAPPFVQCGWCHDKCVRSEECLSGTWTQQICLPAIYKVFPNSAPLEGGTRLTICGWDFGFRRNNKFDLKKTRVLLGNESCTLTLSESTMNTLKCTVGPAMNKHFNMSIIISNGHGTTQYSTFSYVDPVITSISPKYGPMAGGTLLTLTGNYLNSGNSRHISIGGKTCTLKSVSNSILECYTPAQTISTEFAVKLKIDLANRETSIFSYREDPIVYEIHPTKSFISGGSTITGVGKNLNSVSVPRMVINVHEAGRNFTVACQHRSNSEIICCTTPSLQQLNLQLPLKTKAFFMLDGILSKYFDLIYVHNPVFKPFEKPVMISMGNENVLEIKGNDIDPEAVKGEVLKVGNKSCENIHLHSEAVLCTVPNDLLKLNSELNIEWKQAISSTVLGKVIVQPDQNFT

B1: 55A10G6-Hz: humanized anti-c-Met antibody, IgG1/Kappa; HC SEQ ID NO: 58, LC SEQ ID NO: 59 (antibody)
heavy: QIQLVQSGAEVKKPGASVKVSCKASGYTFTDYYLNWVRQAPGQGLEWMGWIFPGSGNTKYSQKFQGRVTLTVDTSASTAYMELSSLRSEDTAVYYCAGGDYGGFTYWGQGTLVTVSSASTKGPSVFPLAPSSKSTSGGTAALGCLVKDYFPEPVTVSWNSGALTSGVHTFPAVLQSSGLYSLSSVVTVPSSSLGTQTYICNVNHKPSNTKVDKKV[human IgG1 Fc omitted here]
light: DIQMTQSPSSLSASVGDRVTITCGASENIYGALNWYQQKPGKAPKLLIYGATNLAAGVPSRFSGSGSGRDFTLTISSLQPEDFATYYCQNVLSEPLTFGQGTKVEIKRTVAAPSVFIFPPSDEQLKSGTASVVCLLNNFYPREAKVQWKVDNALQSGNSQESVTEQDSKDSTYSLSSTLTLSKADYEKHKVYACEVTHQGLSSPVTKSFNRGEC
- cynoMet EC50 [1]: 6.401 ng/mL
- EC50 [2]: 6.142 ng/mL
- block of HGF-induced ERK phosphorylation [3]: completely block
- h.cMet EC50 [4]: 4.782 ng/mL
